IC50 data for 30 molecules are collected here from EP4825857A1, “TRICYCLIC FUSED HETEROCYCLIC PDE3/4 DUAL INHIBITOR, AND PREPARATION AND USE THEREFOR” (dated 2026).

By UniProt entry, the sequences of proteins in these tests, tags left out. Chains listed by the source or under a name are the forms on record and can include a tag or linker. Residues count along the entry.
UniProt Q13370, whole entry: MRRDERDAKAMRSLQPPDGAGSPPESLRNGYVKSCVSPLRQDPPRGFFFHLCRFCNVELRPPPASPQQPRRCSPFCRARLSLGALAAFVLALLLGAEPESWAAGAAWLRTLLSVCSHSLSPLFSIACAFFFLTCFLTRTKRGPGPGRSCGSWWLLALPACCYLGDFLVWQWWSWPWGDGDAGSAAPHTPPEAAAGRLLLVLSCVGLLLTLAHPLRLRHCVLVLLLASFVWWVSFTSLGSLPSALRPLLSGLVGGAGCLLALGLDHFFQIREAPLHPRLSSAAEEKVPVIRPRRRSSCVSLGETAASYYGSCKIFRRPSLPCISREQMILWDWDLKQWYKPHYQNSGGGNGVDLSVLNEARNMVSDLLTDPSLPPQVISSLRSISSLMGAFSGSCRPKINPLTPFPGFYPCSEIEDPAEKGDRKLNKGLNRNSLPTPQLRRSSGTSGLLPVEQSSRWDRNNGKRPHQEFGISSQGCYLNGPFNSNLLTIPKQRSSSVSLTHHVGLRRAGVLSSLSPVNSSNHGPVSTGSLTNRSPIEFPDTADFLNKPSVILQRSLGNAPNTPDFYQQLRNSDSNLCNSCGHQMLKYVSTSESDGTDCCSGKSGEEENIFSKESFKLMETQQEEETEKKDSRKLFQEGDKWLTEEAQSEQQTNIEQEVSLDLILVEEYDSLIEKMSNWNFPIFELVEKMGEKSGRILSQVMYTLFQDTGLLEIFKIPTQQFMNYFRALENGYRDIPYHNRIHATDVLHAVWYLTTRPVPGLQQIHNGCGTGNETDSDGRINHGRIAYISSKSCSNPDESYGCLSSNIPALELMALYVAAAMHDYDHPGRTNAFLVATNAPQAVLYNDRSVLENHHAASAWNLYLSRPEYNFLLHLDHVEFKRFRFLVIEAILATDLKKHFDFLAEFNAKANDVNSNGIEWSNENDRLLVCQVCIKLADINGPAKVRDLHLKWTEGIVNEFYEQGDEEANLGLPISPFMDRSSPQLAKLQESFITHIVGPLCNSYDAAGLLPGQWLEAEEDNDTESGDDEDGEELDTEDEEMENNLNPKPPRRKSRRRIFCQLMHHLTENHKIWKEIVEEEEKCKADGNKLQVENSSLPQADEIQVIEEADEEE
UniProt Q07343, 1-564 with tags or gaps: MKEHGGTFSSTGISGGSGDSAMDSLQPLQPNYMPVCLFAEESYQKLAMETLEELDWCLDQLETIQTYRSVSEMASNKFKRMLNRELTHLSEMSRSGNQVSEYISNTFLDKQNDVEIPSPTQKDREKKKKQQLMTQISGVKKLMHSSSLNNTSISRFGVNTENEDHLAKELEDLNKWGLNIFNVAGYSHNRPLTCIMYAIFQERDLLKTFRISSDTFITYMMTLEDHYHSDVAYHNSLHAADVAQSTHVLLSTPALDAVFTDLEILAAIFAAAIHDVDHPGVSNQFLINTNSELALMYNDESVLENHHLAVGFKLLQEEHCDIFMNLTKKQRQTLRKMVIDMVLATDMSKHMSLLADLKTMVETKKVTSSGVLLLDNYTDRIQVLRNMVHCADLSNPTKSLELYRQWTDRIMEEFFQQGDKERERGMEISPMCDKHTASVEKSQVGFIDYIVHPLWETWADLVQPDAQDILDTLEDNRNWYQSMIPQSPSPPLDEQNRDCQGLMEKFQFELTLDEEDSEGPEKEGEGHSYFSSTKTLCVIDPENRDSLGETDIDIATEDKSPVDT
UniProt Q14432, whole entry: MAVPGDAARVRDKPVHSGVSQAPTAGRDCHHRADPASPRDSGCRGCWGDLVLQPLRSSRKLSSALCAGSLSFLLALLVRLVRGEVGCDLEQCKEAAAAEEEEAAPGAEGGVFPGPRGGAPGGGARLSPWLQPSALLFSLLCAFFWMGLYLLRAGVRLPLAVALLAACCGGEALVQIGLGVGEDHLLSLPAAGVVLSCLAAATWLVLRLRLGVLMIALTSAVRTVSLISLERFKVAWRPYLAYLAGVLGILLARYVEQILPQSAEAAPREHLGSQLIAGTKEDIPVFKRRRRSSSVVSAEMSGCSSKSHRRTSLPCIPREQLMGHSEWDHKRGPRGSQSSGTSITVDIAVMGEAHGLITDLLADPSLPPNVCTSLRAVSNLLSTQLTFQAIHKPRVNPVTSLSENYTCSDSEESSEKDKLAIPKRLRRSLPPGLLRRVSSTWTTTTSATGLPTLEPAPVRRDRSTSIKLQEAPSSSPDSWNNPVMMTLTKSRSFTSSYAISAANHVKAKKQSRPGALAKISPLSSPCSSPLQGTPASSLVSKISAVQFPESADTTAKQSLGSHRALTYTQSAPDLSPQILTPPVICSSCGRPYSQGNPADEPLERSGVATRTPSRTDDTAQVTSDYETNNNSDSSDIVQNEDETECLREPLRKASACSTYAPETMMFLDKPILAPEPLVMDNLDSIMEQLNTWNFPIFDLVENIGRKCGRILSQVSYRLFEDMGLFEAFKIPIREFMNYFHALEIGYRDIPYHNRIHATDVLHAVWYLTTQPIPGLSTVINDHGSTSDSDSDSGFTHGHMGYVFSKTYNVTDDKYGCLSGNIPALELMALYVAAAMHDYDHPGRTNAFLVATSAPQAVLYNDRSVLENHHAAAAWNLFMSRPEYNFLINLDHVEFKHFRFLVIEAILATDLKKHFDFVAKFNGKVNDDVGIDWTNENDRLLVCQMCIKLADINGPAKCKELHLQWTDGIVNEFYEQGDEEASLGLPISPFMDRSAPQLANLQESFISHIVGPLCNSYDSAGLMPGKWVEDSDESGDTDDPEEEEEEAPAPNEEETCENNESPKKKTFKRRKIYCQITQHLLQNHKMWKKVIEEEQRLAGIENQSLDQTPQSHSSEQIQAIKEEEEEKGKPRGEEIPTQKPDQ
UniProt Q08499, 303-809 limits assumed: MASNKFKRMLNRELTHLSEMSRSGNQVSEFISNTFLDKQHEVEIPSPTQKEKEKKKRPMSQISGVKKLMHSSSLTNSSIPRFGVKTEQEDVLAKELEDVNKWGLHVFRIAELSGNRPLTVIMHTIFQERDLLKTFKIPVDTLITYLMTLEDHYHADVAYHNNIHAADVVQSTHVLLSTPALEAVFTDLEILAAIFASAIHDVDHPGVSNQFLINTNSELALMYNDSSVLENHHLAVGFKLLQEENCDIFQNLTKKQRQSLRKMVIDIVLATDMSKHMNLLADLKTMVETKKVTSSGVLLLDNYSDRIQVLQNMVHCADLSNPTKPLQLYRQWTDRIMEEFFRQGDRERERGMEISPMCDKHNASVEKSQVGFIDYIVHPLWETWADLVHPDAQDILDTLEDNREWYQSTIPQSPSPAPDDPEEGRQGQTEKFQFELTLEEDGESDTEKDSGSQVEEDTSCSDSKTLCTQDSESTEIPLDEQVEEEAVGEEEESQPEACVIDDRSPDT

A value given as a limit tells only on which side of the number the result lay.

Test in all cases: PDE enzyme activity inhibition assay (fluorescence polarization, IMAP)
One test has as its target PDE3B (Homo sapiens, UniProt Q13370). Particulars: read-out: PDE3B; FP assay, Table 4. The procedure:
(§1) The inhibitory activity of the compounds of the Examples against PDE enzymes was evaluated using a fluorescence polarization (FP) assay. RPL-554, the compound disclosed in Example 1 of CN100415743C, was used as the positive control. [drawing 182]
(§2) In a reaction buffer, i.e., 1× IMAP Reaction Buffer containing 0.1% BSA and supplemented with 1 mM DTT, a PDE enzyme solution and a substrate solution (FAM-cyclic AMP/cyclic AMP) were prepared. The positive control was prepared at an initial concentration of 1/10 µM for the PDE assay and was diluted 3-fold, with a 10+0 dose design. Using the acoustic liquid handling technology (Echo 655), 0.05 µL of each compound in 100% DMSO was transferred into a 384-well plate (Corning 4514), followed by centrifugation at 1,000 rpm for 1 min. Then, 2.5 µL of the PDE enzyme solution was transferred into the 384-well reaction plate, followed by centrifugation at 1,000 rpm for 1 min and incubation at 25 °C for 10 min. Subsequently, 2.5 µL of the substrate solution was transferred into the 384-well reaction plate, followed by centrifugation at 1,000 rpm for 1 min and incubation at 25 °C for 60 min. Then, 15 µL of a binding reagent mixture was transferred into the 384-well reaction plate, followed by centrifugation at 1,000 rpm for 1 min and incubation at 25 °C for 60 min. Finally, the FP signal was measured using a BMG PHERAstar FSX plate reader. IC50 values and nonlinear regression curve fitting were obtained using GraphPad Prism software.
(§3) The inhibitory activities of the compounds against PDE enzymes were evaluated using the FP method, with RPL-554 and compound D7 as control compounds. The detailed test method was the same as that described in PDE Enzyme Activity Inhibition Assay I. The structural formulae of RPL-554 and compound D7 are shown below. [drawing 183]

Another test deals with PDE4B2 (Homo sapiens, UniProt Q07343). As to conditions: read-out: PDE4B2; FP assay, Table 4. As for the experimental part:
as §1, §2, §3

Another test concerns the target PDE3A (Homo sapiens, UniProt Q14432). Particulars: read-out: PDE3A; FP assay, Table 4. As for the experimental part: as §1, §2, §3
For the next test, the target named is PDE4D2 (Homo sapiens, UniProt Q08499). Particulars: read-out: PDE4D2; FP assay, Table 4. The procedure:
as §1, §2, §3

As to `COc1cc2c(cc1OC)-c1cc(N(c3c(C)cc(C)cc3C)C3CCN(C(N)=O)C3)nc(=O)n1CC2` (stereo not drawn), the IC50 on PDE3B was determined as 0.122 nM; on PDE4B2, 130 nM; on PDE3A, 0.077 nM; on PDE4D2, 98.7 nM.

With `COc1cc2c(cc1OC)-c1cc(N(c3c(C)cc(C)cc3C)C(C)CNC(=O)c3cc(C)ccn3)nc(=O)n1CC2` (stereo not drawn), the IC50 on PDE3B worked out at 0.135 nM; on PDE4B2, 4.9 nM; on PDE3A it was 0.125 nM; at PDE4D2, 2.86 nM.

In the case of `COc1cc2c(cc1OC)-c1cc(N(c3c(C)cc(C)cc3C)C(C)CNC(=O)c3cnc[nH]3)nc(=O)n1CC2` (single isomer, unassigned) [Compound 13-1], the IC50 on PDE3B was determined as 0.158 nM; on PDE4B2, 9.78 nM; on PDE3A it was 0.112 nM; on PDE4D2, 5.84 nM.

Turning to `COc1cc2c(cc1OC)-c1cc(N(CCNC(N)=O)c3c(C)cc(C)cc3C)nc(=O)n1CC2`, the IC50 at PDE3B turned out to be 0.173 nM; at PDE4B2, 87.2 nM; at PDE3A, 0.125 nM; on PDE4D2, 60.7 nM.

In the case of `COc1cc2c(cc1OC)-c1cc(N(c3c(C)cc(C)cc3C)C(C)CNC(=O)c3ccncn3)nc(=O)n1CC2` (stereo not drawn), the IC50 on PDE3B amounted to 0.169 nM; on PDE4B2, 152 nM; at PDE3A, 0.101 nM; on PDE4D2 it was 108 nM.

For `COc1cc2c(cc1OC)-c1cc(N(c3c(C)cc(C)cc3C)C(C)CNC(=O)c3cnn[nH]3)nc(=O)n1CC2` (single isomer, unassigned) [Compound 9-2], the IC50 came to 0.0818 nM at PDE3B, 162 nM at PDE4B2, 0.0751 nM on PDE3A and 160 nM at PDE4D2.

As for `COC(=O)NCC(C)N(c1cc2n(c(=O)n1)CCc1cc(OC)c(OC)cc1-2)c1c(C)cc(C)cc1C` (stereo not drawn), the IC50 worked out at 0.122 nM on PDE3B, 30.4 nM at PDE4B2, 0.0999 nM at PDE3A and 23 nM at PDE4D2.

Consider `COc1cc2c(cc1OC)-c1cc(N(c3c(C)cc(C)cc3C)C(C)CNC(=O)c3cncc(C)n3)nc(=O)n1CC2` (stereo not drawn), for which the IC50 on PDE3B was 0.11 nM; at PDE4B2, 5.13 nM; on PDE3A, 0.0905 nM; at PDE4D2 it was 4.04 nM.

For `COc1cc2c(cc1OC)-c1cc(N(c3c(C)cc(C)cc3C)C(C)CNC(=O)/C(C#N)=C(/C)O)nc(=O)n1CC2` (stereo not drawn), the IC50 on PDE3B stood at 0.136 nM; on PDE4B2 it was 598 nM; at PDE3A, 0.0887 nM; on PDE4D2, 368 nM.

With `CNC(=O)NCC(C)N(c1cc2n(c(=O)n1)CCc1cc(OC)c(OC)cc1-2)c1c(C)cc(C)cc1C` (stereo not drawn), the IC50 on PDE3B was found to be 0.134 nM; on PDE4B2, 23.3 nM; on PDE3A, 0.078 nM; on PDE4D2 it was 17.2 nM.

With `CCCCN(c1cc2n(c(=O)n1)CCc1cc(OC)c(OC)cc1-2)c1c(C)cc(C)cc1C`, the IC50 on PDE3B turned out to be 0.46 nM; on PDE4B2, 113 nM; at PDE3A, 0.249 nM; at PDE4D2, 121 nM.

With `COc1cc2c(cc1OC)-c1cc(N(C(=O)CNC(N)=O)c3c(C)cc(C)cc3C)nc(=O)n1CC2`, the IC50 at PDE3B is 27.3 nM; at PDE4B2 it was 1290 nM; at PDE3A, 13.9 nM; at PDE4D2 it was 1400 nM.

As to `COc1cc2c(cc1OC)-c1cc(N(c3c(C)cc(C)cc3C)C(C)CCNC(N)=O)nc(=O)n1CC2` (single isomer, unassigned) [Compound 3-2], the IC50 on PDE3B was determined as 0.1 nM; at PDE4B2, 152 nM; on PDE3A it was 0.0979 nM; at PDE4D2, 215 nM.

For the molecule `CCN(CC)CCN(c1cc2n(c(=O)n1)CCc1cc(OC)c(OC)cc1-2)c1c(C)cc(C)cc1C`, the IC50 at PDE3B was above 40 nM; at PDE4B2, 15200 nM; on PDE3A, 21.2 nM; on PDE4D2, 13800 nM.

Take `COc1cc2c(cc1OC)-c1cc(N(c3c(OC)cc(C)cc3OC)C(C)CNC(N)=O)nc(=O)n1CC2` (single isomer, unassigned) [Compound 24-2]: the IC50 at PDE3B was determined as 12.7 nM; at PDE4B2, 76.5 nM; at PDE3A, 7.63 nM; on PDE4D2, 58 nM.

With `COc1cc2c(cc1OC)-c1cc(N(c3c(C)cc(C)cc3C)C(C)CNC(=O)c3cnc[nH]3)nc(=O)n1CC2` (single isomer, unassigned) [Compound 13-2], the IC50 came to 0.0768 nM at PDE3B, 139 nM at PDE4B2, 0.0661 nM on PDE3A and 120 nM at PDE4D2.

For the molecule `COc1cc2c(cc1OC)-c1cc(N(c3c(C)cc(C)cc3C)C(C)CNC(=O)c3ccc(C)cn3)nc(=O)n1CC2` (stereo not drawn), the IC50 at PDE3B came to 0.108 nM; on PDE4B2, 6.3 nM; at PDE3A it was 0.107 nM; at PDE4D2, 5.75 nM.

As for `COc1cc2c(cc1OC)-c1cc(N(C(C)=O)c3c(C)cc(C)cc3C)nc(=O)n1CC2`, the IC50 is 2.89 nM on PDE3B, 1120 nM at PDE4B2, 2.2 nM at PDE3A and 669 nM on PDE4D2.

`COc1cc2c(cc1OC)-c1cc(N(c3c(C)cc(C)cc3C)C(C)CNC(=O)c3ccn[nH]3)nc(=O)n1CC2` (single isomer, unassigned) [Compound 11-2]: the IC50 at PDE3B is 0.1 nM; on PDE4B2, 155 nM; at PDE3A it was 0.0696 nM; at PDE4D2, 157 nM.

Take `COc1cc2c(cc1OC)-c1cc(N(c3c(C)cc(C)cc3C)C(C)CNC(=O)c3ncccc3C)nc(=O)n1CC2` (stereo not drawn): the IC50 at PDE3B is 0.122 nM; at PDE4B2 it was 1.01 nM; on PDE3A, 0.108 nM; on PDE4D2, 0.568 nM.

In the case of `COc1cc2c(cc1OC)-c1cc(N(c3c(C)cc(C)cc3C)C(C)CNC(=O)c3[nH]nnc3C)nc(=O)n1CC2` (single isomer, unassigned) [Compound 12-2], the IC50 came to 0.0727 nM at PDE3B, 106 nM on PDE4B2, 0.0691 nM on PDE3A and 78.8 nM on PDE4D2.

Take `COc1cc2c(cc1OC)-c1cc(N(c3c(C)cc(C)cc3C)C(C)CCNC(N)=O)nc(=O)n1CC2` (single isomer, unassigned) [Compound 3-1]: the IC50 is 0.103 nM on PDE3B, 187 nM on PDE4B2, 0.0945 nM at PDE3A and 227 nM at PDE4D2.

Turning to `CCC(CNC(N)=O)N(c1cc2n(c(=O)n1)CCc1cc(OC)c(OC)cc1-2)c1c(C)cc(C)cc1C` (single isomer, unassigned) [Compound 15-2], the IC50 at PDE3B stood at 0.0767 nM; at PDE4B2, 21.8 nM; on PDE3A, 0.0756 nM; on PDE4D2, 13.2 nM.

Turning to `COc1cc2c(cc1OC)-c1cc(N(c3c(C)cc(C)cc3C)C3CC(NC(N)=O)C3)nc(=O)n1CC2` (single isomer, unassigned) [Compound 4-2], the IC50 at PDE3B is above 40 nM; at PDE4B2, 425 nM; at PDE3A, above 40 nM; on PDE4D2, 517 nM.

On to `COc1cc2c(cc1OC)-c1cc(N(c3c(C)cc(C)cc3C)C(C)CNC(=O)c3ncc[nH]3)nc(=O)n1CC2` (single isomer, unassigned) [Compound 10-1], for which the IC50 on PDE3B amounted to 0.0642 nM; on PDE4B2, 35.5 nM; at PDE3A, 0.0477 nM; at PDE4D2 it was 40.2 nM.

With `COc1cc2c(cc1OC)-c1cc(N(c3c(C(C)C)cc(C)cc3C(C)C)C(C)CNC(N)=O)nc(=O)n1CC2` (single isomer, unassigned) [Compound 23-2], the IC50 is 0.171 nM at PDE3B, 85.3 nM on PDE4B2, 0.136 nM on PDE3A and 63.4 nM on PDE4D2.

As for `COc1cc2c(cc1OC)-c1cc(N(c3c(C)cc(C)cc3C)C(C)CNC(=O)OC(C)(C)C)nc(=O)n1CC2` (stereo not drawn), the IC50 is 0.103 nM on PDE3B, 489 nM at PDE4B2, 0.045 nM at PDE3A and 275 nM on PDE4D2.

`COc1cc2c(cc1OC)-c1cc(N(c3c(OC)cc(C)cc3OC)C(C)CNC(N)=O)nc(=O)n1CC2` (single isomer, unassigned) [Compound 24-1]: the IC50 came out at 4.47 nM on PDE3B, 201 nM at PDE4B2, 2.91 nM at PDE3A and 319 nM at PDE4D2.

Consider `COc1cc2c(cc1OC)-c1cc(N(c3c(C)cc(C)cc3C)C(C)CNC(=O)c3ccn[nH]3)nc(=O)n1CC2` (single isomer, unassigned) [Compound 11-1], for which the IC50 on PDE3B was above 40 nM; on PDE4B2 it was 5.07 nM; at PDE3A it was above 40 nM; at PDE4D2 it was 4.55 nM.

Regarding `COc1cc2c(cc1OC)-c1cc(N(c3c(C)cc(C)cc3C)C(C)CNC(=O)c3cnn[nH]3)nc(=O)n1CC2` (single isomer, unassigned) [Compound 9-1], the IC50 stood at 0.139 nM on PDE3B, 18.1 nM on PDE4B2, 0.0726 nM on PDE3A and 20 nM on PDE4D2.
